Earlier results on one compound are cited in patent US6291405A, “Glycol based drilling fluid” (M-I LLC, priority 1998, dated 2001).

For this data set the following is noted: in vivo, po; cited from earlier work.

Take `CC(O)COC(C)COC(C)CO` (stereo not shown) [Tripropylene Glycol, tripropylene glycol]: the LD50 is given as ~ 3 gm/KG.
